This is a sample that favours compounds with a hit; in the whole collection about 1.9% have one here.
PDI inh: inhibitors of human protein disulfide isomerase; PDI insulin aggregation turbidity, A650, 90 min; inhibition, % at 10 µM; 350,000 compounds, 0.052% hits;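 active means mean inhibition across replicates of 30% or more, whatever share of single replicates reach that level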
ARNT-TACC3 inh: disruptors of human ARNT/TACC3 interaction | Q9Y6A5 | AlphaScreen His-ARNT PAS-B/GST-TACC3 binding, luminescence; TACC3 fragment carries E629A point mutation | inhibition, % at 9.99 µM | 390,000 compounds, 0.66% hits;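 active means mean inhibition of replicates at least 50% and at least half of replicates each reaching 50%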;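 further: 0% = complete ARNT plus TACC3 wells and 100% = ARNT alone without TACC3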
PglD inh: inhibitors of Campylobacter jejuni PglD acetyltransferase. inhibition, % at 12.5 µM. AID 602405. purified PglD enzyme, DTNB colorimetric CoA detection. 360,000 compounds, 0.098% hits; in the data active means inhibition above about 16%, passing the limit was not always enough
ERp5 inh: blocks human ERp5 reductase activity on insulin | AID 651711 | inhibition, % at 9.99 µM | Q15084 | 350,000 compounds, 0.05% hits | ERp5 insulin aggregation, absorbance 650 nm, 90 min;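 active means mean replicate inhibition above about 25%, with every replicate also reaching it, limit read from the data, passing the limit was not always enough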
Yeast UUG start: yeast start codon fidelity modulation; activity score, % at 18.7 µM; actives 0.13% (n = 350,000); S. cerevisiae UUG-firefly luciferase reporter, luminescence/redox ratio; AID 602363;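 active means replicate mean at a twofold rise or more, about +100% in these data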;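 further: firefly luciferase made from a UUG start codon reports start codon fidelity; reporter light over untreated wells divided by growth signal over untreated wells; some hits fall short of that in this replicate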
FGF22 binding: shifts melting point of recombinant human FGF22 | Q9HCT0 | recombinant FGF22 thermal shift, SYPRO orange fluorescence; percent of sucrose octasulfate shift, DMSO zero | activity (Tm shift, normalised), % at 9.99 µM | 340,000 compounds, 1.5% hits;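 active means mean Tm shift, scaled 0 neutral to 100 positive control, at about 1.3% or above, every replicate too, limit read from the data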
AlphaScreen ctr: interferes with AlphaScreen signal, flagging false ARNT-TACC3 hits | His-ARNT PASB-GST AlphaScreen artifact counter-screen, luminescence | 1,200 compounds, 50% hits | shares compounds with ARNT-TACC3 inh | AC50, µM (doses to about 68 µM), inactives show at the top dose activity change, negative = signal decrease | AID 651705;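 active means every separate test run was called active for a drop in luminescence, with AC50 within twice the top valid dose, actives reach about 71 µM in these data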
* marks the source's active call; other numbers are inactive results; · = not tested or not shown.

| entry | structure | PDI inh | ARNT-TACC3 inh | PglD inh | ERp5 inh | Yeast UUG start | FGF22 binding | AlphaScreen ctr |
| --- | --- | --- | --- | --- | --- | --- | --- | --- |
| 1 | C[C@H]1CN([C@@H](C)CO)C(=O)Cc2cc(NC(=O)Nc3cccc4ccccc34)ccc2O[C@@H]1CN(C)Cc1ccc(Oc2ccccc2)cc1 | · | 61* | -3 | -4 | -11 | 0 | 34µM* |
| 2 | COc1ccc(CN(C)C[C@@H]2Oc3ccc(NC(=O)Nc4ccc(F)cc4)cc3CC(=O)N([C@H](C)CO)C[C@@H]2C)cc1 | · | 7 | 1 | 1 | 4 | 0 | · |
| 3 | COCC(=O)N1C[C@H]2[C@@H](c3ccccc31)[C@@H](CO)N2Cc1ccccc1F | · | -8 | 3 | 1 | -4 | -1 | · |
| 4 | C[C@@H]1CCCCO[C@@H](CN(C)S(=O)(=O)c2ccc(F)cc2)[C@@H](C)CN([C@@H](C)CO)C(=O)c2cc(NS(=O)(=O)c3ccc(F)cc3)ccc2O1 | · | 5 | 1 | · | 28 | 0 | · |
| 5 | C#CCOc1ccc(Br)cc1C(c1c(C)[nH][nH]c1=O)c1c(C)[nH][nH]c1=O | 4 | -6 | 7 | 5 | -24 | 0 | · |
| 6 | CCOc1ccc(Cl)cc1C(c1c(C)[nH][nH]c1=O)c1c(C)[nH][nH]c1=O | -4 | active | -5 | 2 | -13 | 0 | 4% |
| 7 | COc1ccc2c3c(n(C)c2c1)[C@H](CO)N(Cc1ccccc1F)CC31CN(C(=O)C2CCCC2)C1 | · | · | · | -8 | · | 0 | · |
| 8 | O=C(NCCCNCCCNC(=O)c1ccc(/C=N/O)nc1)c1ccc(/C=N/O)nc1 | 7 | 56* | -2 | 0 | -10 | 0 | 66µM* |
| 9 | Oc1c(C(Nc2ccccn2)c2cccnc2)cc(Cl)c2cccnc12 (centres undefined) | 9 | 57* | · | 3 | · | 0 | 15µM* |
| 10 | CC(=O)NC(c1ccc(C)cc1)c1cc(Cl)c2cccnc2c1O (centres undefined) | 5 | 5 | 3 | -1 | -8 | 0 | · |
| 11 | Oc1c(C(Nc2cccc(C(F)(F)F)c2)c2cccnc2)ccc2cccnc12 (centres undefined) | -3 | 21 | · | · | · | · | · |
| 12 | Cc1cc(NC(c2cccnc2)c2ccc3cccnc3c2O)no1 (centres undefined) | -3 | 63* | 1 | · | -35 | · | 11µM* |
| 13 | CO[C@H]1CN(C)C(=O)c2ccc(NS(=O)(=O)c3cccc(C)c3)cc2OC[C@H](C)NC[C@@H]1C | · | · | · | 3 | · | 0 | · |
| 14 | COc1ccc(C2CC(=O)Oc3c(C(CCN4CCCCC4)c4ccc(N(C)C)cc4)c(OC)cc(OC)c32)cc1 (centres undefined) | -5 | 39* | 8 | -2 | -3 | 0 | 17µM* |
| 15 | COc1ccc(C2CC(=O)Oc3c(C(CCN4CCCC(C)C4)c4ccc(N(C)C)cc4)c(OC)cc(OC)c32)cc1 (centres undefined) | 2 | 20 | 1 | -4 | -1 | 0 | · |
| 16 | C[C@H](CO)N1C[C@H](C)[C@H](CN(C)C(=O)Nc2ccc3c(c2)OCO3)OCCCC[C@H](C)Oc2ccc(NC(=O)c3ccccc3)cc2C1=O | · | -3 | -3 | -5 | 25 | 0 | · |
| 17 | Cc1noc(C)c1NC(=O)N(C)C[C@H]1Oc2ccc(NC(=O)NC3CCCCC3)cc2CC(=O)N([C@H](C)CO)C[C@@H]1C | · | -3 | 7 | -4 | -11 | 0 | · |
| 18 | O=C(N[C@H]1CC[C@H](CCn2cc(-c3ccccn3)nn2)O[C@@H]1CO)c1ccc(F)cc1 | · | 59* | -1 | -4 | -25 | 0 | 59µM* |
| 19 | COCc1cn(CC[C@H]2CC[C@@H](NC(=O)c3ccccc3)[C@@H](CO)O2)nn1 | · | -15 | -5 | -4 | -8 | 0 | · |
| 20 | COCc1cn(CC[C@@H]2CC[C@@H](NC(=O)c3ccncc3)[C@H](CO)O2)nn1 | · | -1 | 3 | 0 | 3 | 0 | · |
| 21 | O=C(N[C@H]1CC[C@@H](CCn2cc(-c3ccccn3)nn2)O[C@@H]1CO)c1ccccc1 | · | 77* | 9 | -2 | -3 | 0 | 41µM* |
| 22 | O=C(N[C@@H]1CC[C@@H](CCn2cc(-c3ccccn3)nn2)O[C@H]1CO)c1ccccc1 | · | 74* | 7 | -4 | -4 | 0 | 41µM* |

Fetched by compound from the list above:
| entry | structure | PDI inh | ARNT-TACC3 inh | PglD inh | ERp5 inh | Yeast UUG start | FGF22 binding | AlphaScreen ctr |
| --- | --- | --- | --- | --- | --- | --- | --- | --- |
| 1 | C[C@H]1CN([C@@H](C)CO)C(=O)Cc2cc(NC(=O)Nc3cccc4ccccc34)ccc2O[C@@H]1CN(C)Cc1ccc(Oc2ccccc2)cc1 | · | 61* | -3 | -4 | -11 | 0 | 34µM* |
| 8 | O=C(NCCCNCCCNC(=O)c1ccc(/C=N/O)nc1)c1ccc(/C=N/O)nc1 | 7 | 56* | -2 | 0 | -10 | 0 | 66µM* |
| 9 | Oc1c(C(Nc2ccccn2)c2cccnc2)cc(Cl)c2cccnc12 (centres undefined) | 9 | 57* | · | 3 | · | 0 | 15µM* |

High-throughput results deposited in PubChem BioAssay by Broad Institute.
